The target of this assay is human JAK1 (a.a. 837-1142) (Homo sapiens, UniProt P23458). The assay is described as follows: In vitro JAK kinase assay (Example D), JAK1. The class given is biochemical. The settings on record: 1 mM ATP.

As usually defined, the IC50 is the concentration that gives 50% inhibition. The low end stands for inhibition by little substance, the high end for a need for much substance.

Molecules are shown by their SMILES. A value given as a limit tells only on which side of the number the result lay.

In turn, `CN(C)Cc1cc(F)cc(OC2CCN(CC(CC#N)n3cc(-c4ncnc5[nH]ccc45)cn3)CC2)c1` (single isomer, unassigned) [Form 14, 4-(4-{3-[(dimethylamino)methyl]-5-fluorophenoxy}piperidin-1-yl)-3-[4-(7H-pyrrolo[2,3-d]pyrimidin-4-yl)-1H-pyrazol-1-yl]butanenitrile] yielded an IC50 of less than 10 nM.

The record behind these values is US10125150B2, “Crystalline forms of a PI3K inhibitor” (Incyte Corporation, priority 2015, dated 2018).
